Data on two molecules can be found in PMC5658604, “An ArsR/SmtB family member regulates arsenic resistance genes unusually arranged in Thermus thermophilus HB27” (2017).

By UniProt entry, the sequences of proteins in these tests, tags left out. Residues count along the entry.
UniProt Q72KG0, 1-123 limits assumed: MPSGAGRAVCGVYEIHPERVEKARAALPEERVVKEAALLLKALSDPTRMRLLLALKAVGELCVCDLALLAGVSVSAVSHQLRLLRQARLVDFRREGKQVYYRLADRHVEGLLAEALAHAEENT

The test addresses TtSmtB (Thermus thermophilus, UniProt Q72KG0). Description: far-UV circular dichroism titration at […] nm. The note with it: read-out: apparent K d; 25 mM Na-phosphate pH 7.0, about 3 μM protein; one-binding-site fit; effector that releases DNA. On the technique in general: Circular dichroism is widely used to follow secondary structure.

With `O[As](O)O`, the Kd turned out to be 250 µM.

With `O=[As](O)(O)O`, the Kd came out at 60 µM.
